Molecular target: T1, purified recombinant human PDE9 (Homo sapiens, UniProt O76083)
T1 construct: FLAG; made in house; host or cells: baculovirus/Sf9
Test: PDE9 enzyme inhibition scintillation proximity assay ([3H]cGMP hydrolysis)
Format: biochemical
Details: read-out: inhibition against PDE9 at a concentration of 1 μM
Description: The ability of the compounds of the invention to inhibit the PDE9 enzyme was determined using the following in vitro assay. The assay used purified recombinant human PDE9.
The assay uses [3H]cGMP which is hydrolysed by the PDE9 enzyme to the 5′-nucleotide [3H]GMP. The [3H]GMP binds to yttrium silicate scintillation proximity assay (SPA) beads, and detected by scintillation counting. Inhibition of activity is determined relative to the activity of uninhibited controls.
Phosphodiesterase Scintillation Proximity Assay (SPA) beads (Yttrium Silicate) were obtained from Amersham Biotech.
[^3H]Guanosine 3′,5′-Cyclic Phosphate ([^3H]-cGMP), Ammonium Salt was obtained from Amersham Biotech.
Buffer A was prepared containing Tris.HCl (20 mM), MgCl2.6H2O (5 mM) in water.
Buffer B was prepared containing Bovine Serum Albumin (2 mg/ml) (BSA) in Buffer A. It was prepared fresh and filter sterilised.
PDE9 enzyme solution was prepared in Buffer B (dilution factor determined such that no more than 30% breakdown of substrate occurred, but typically 1:35,000). […]
The plates were then analysed using a scintillation counter (such as the NXT TopCount)TM.
For each compound the percentage inhibition was calculated by the following equation: […]
IC50 values were determined from sigmoid dose response curves of enzyme activity vs. compound concentration.

Sequences of proteins named here, by UniProt entry; tags and fusion partners are left off. A change or cut given only in a name is not applied to a line headed by its entry.
UniProt O76083: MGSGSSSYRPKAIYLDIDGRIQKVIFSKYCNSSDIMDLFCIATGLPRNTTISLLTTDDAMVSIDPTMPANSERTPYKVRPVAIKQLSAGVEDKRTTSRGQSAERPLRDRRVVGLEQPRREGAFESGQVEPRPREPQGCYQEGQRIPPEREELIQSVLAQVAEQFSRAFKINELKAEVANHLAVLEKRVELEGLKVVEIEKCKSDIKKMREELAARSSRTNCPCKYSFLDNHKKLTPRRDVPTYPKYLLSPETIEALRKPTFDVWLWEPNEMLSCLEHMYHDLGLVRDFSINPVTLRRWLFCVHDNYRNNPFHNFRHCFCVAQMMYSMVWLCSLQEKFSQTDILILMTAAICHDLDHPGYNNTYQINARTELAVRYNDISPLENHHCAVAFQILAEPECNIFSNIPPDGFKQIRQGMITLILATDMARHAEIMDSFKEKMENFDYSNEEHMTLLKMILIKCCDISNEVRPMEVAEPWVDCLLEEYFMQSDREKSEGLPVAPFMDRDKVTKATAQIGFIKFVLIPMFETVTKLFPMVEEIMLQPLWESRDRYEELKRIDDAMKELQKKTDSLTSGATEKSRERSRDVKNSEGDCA

In the case of `CC(C)c1n[nH]c2c(=O)[nH]c(Cc3cccc(Cl)c3)nc12` [Compound 1, 5-(3-chlorobenzyl)-3-isopropyl-1,6-dihydro-pyrazolo[4,3-d]pyrimidin-7-one], the inhibition at 1 µM is reported as > 40%.
